## Measured affinities in a library of Ab-14 light chain variants

Reference: Li et al. 2023, doi:10.1038/s41467-023-39022-2. File: FLAb, binding data.

All variants were tested on one target, the spike HR2 peptide PDVDLGDISGINAS (SARS-CoV-2).

Ab-14 is the parent antibody, in scFv form: VH, then three GGGGS repeats, then VL. The heavy chain is unchanged in all variants.
VH: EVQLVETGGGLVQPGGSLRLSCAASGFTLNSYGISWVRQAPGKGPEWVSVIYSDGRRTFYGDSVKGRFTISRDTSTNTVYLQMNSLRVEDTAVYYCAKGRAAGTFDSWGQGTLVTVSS
VL: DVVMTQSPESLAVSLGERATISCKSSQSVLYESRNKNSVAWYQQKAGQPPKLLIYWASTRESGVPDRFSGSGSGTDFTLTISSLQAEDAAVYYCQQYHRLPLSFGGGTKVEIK

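The parent was found by panning a naive human phage display library on the peptide. These sequences belong to a second round, designed from the earlier measurements on random variants of the parent. Their group label is 14L_En_Gibbs (En: ensemble of fine-tuned language models; Gibbs: Gibbs sampling). AlphaSeq pools MATa yeast showing the antibodies with MATalpha yeast showing the peptide. Mating (16 h, 30 °C) was followed by selection of diploids and sequencing of their barcodes. A regression on co-assayed BCL2-family reference pairs converts the normalised counts of each replicate to an apparent Kd. Each pool was mated in six replicate cultures.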

Each variant is given by its three light chain CDRs, as the data file delimits them; those of the parent are KSSQSVLYESRNKNSVA, WASTRES, QQYHRLPLS. The read-out is the apparent dissociation constant on a log10 scale (nM): the lower, the stronger. The mean shown is taken over the replicates in which the pair was detected. A pair that was not seen in that replicate is written "nd"; this usually means weak binding, but a binder can also be missed. Of ten entries with the parent sequence, four were seen in most replicates (averages 0.34 to 2.37), three in one and three in none, so single entries are noisy.

{"CDR-L1": "ALSINMPQQHYMYDSIA", "CDR-L2": "HSDRREA", "CDR-L3": "QQYYRLPLA", "log10 Kd (nM) by replicate": "1.37 / 0.19 / 0.50 / 0.34 / 0.88 / 0.84", "log10 Kd (nM), mean": "0.69", "control signals": "0 of 18"}
{"CDR-L1": "YIAENSDNLYQNTSSVA", "CDR-L2": "ETNQVRQ", "CDR-L3": "QQYHLLPLA", "log10 Kd (nM) by replicate": "nd / nd / nd / nd / nd / nd", "log10 Kd (nM), mean": "nd", "control signals": "0 of 18"}
{"CDR-L1": "KLFDELSSEQVNARAVA", "CDR-L2": "DALATHE", "CDR-L3": "QQYVMLPLS", "log10 Kd (nM) by replicate": "1.73 / 1.25 / nd / 0.74 / 1.73 / 1.34", "log10 Kd (nM), mean": "1.36", "control signals": "0 of 18"}
{"CDR-L1": "SLAMLLDQVYAKGSNIA", "CDR-L2": "NAAELVV", "CDR-L3": "QQYYRLPLT", "log10 Kd (nM) by replicate": "0.49 / 1.24 / 0.05 / -0.08 / 1.37 / 0.76", "log10 Kd (nM), mean": "0.64", "control signals": "0 of 18"}
{"CDR-L1": "TLMHHQDRQDEWKKSIA", "CDR-L2": "NAIIREF", "CDR-L3": "QQYSRLPLA", "log10 Kd (nM) by replicate": "1.46 / 1.69 / 2.37 / 2.54 / 2.26 / 2.42", "log10 Kd (nM), mean": "2.12", "control signals": "0 of 18"}
{"CDR-L1": "NLKEMEGTNQTKHGNIA", "CDR-L2": "SVDQRMT", "CDR-L3": "QQYFRLPFA", "log10 Kd (nM) by replicate": "0.98 / 0.59 / 0.83 / 0.97 / 0.95 / 0.92", "log10 Kd (nM), mean": "0.87", "control signals": "2 of 18 (3.02)"}
{"CDR-L1": "KITFQMQDSNAMDNSIA", "CDR-L2": "QTNVYHD", "CDR-L3": "QQYGRLPLD", "log10 Kd (nM) by replicate": "nd / 1.57 / 1.57 / nd / 2.05 / 1.84", "log10 Kd (nM), mean": "1.75", "control signals": "0 of 18"}
{"CDR-L1": "KMGMTFQQDLMEEYSVA", "CDR-L2": "DHMLRVT", "CDR-L3": "QQYGRLPLS", "log10 Kd (nM) by replicate": "2.20 / 3.70 / nd / 1.73 / 2.51 / 2.41", "log10 Kd (nM), mean": "2.51", "control signals": "0 of 18"}
{"CDR-L1": "KLEYWADGFGQNDNSVA", "CDR-L2": "HMESVRD", "CDR-L3": "QQYHRLPLA", "log10 Kd (nM) by replicate": "nd / 2.41 / 2.57 / nd / nd / nd", "log10 Kd (nM), mean": "2.49", "control signals": "1 of 18 (2.54)"}
{"CDR-L1": "KLDMAELGYSQLSSSVA", "CDR-L2": "GSANKCQ", "CDR-L3": "QQYFRLPLS", "log10 Kd (nM) by replicate": "0.53 / 0.25 / 0.18 / 0.01 / 0.32 / 0.66", "log10 Kd (nM), mean": "0.32", "control signals": "0 of 18"}
{"CDR-L1": "AFTESIFYGQRDSNAIA", "CDR-L2": "GADVVEK", "CDR-L3": "QQYFRFPLA", "log10 Kd (nM) by replicate": "0.32 / 0.26 / 0.36 / 0.28 / 0.13 / 0.62", "log10 Kd (nM), mean": "0.33", "control signals": "1 of 18 (2.72)"}
{"CDR-L1": "NLGYQQDGNGLQRQAVA", "CDR-L2": "NVTMKEY", "CDR-L3": "QYYGRLPLM", "log10 Kd (nM) by replicate": "1.99 / 1.45 / 2.53 / 2.02 / 2.48 / 1.93", "log10 Kd (nM), mean": "2.07", "control signals": "1 of 18 (3.34)"}
{"CDR-L1": "MLTWGDDHTTGHQNAIA", "CDR-L2": "HAHERAT", "CDR-L3": "QQYALLPLS", "log10 Kd (nM) by replicate": "1.39 / 1.16 / 1.09 / 1.18 / 1.36 / 1.24", "log10 Kd (nM), mean": "1.24", "control signals": "5 of 18 (2.72)"}
{"CDR-L1": "NLSYLQGEPTNSVNNVA", "CDR-L2": "QTSKRAP", "CDR-L3": "QYYQRLPLC", "log10 Kd (nM) by replicate": "0.72 / 0.50 / 0.41 / 0.57 / 0.62 / 0.72", "log10 Kd (nM), mean": "0.59", "control signals": "1 of 18 (3.12)"}
{"CDR-L1": "KLWAYTQGFFRNMQNIA", "CDR-L2": "DGIYRVT", "CDR-L3": "QQYGRLPLS", "log10 Kd (nM) by replicate": "1.41 / 2.52 / 2.82 / 0.86 / 1.85 / 1.85", "log10 Kd (nM), mean": "1.88", "control signals": "1 of 18 (2.44)"}
{"CDR-L1": "HMQNEWQGNSRAENNVA", "CDR-L2": "EGTVVCD", "CDR-L3": "QQYATLPLQ", "log10 Kd (nM) by replicate": "1.44 / 1.33 / 1.23 / 0.90 / 1.19 / 1.63", "log10 Kd (nM), mean": "1.29", "control signals": "0 of 18"}
{"CDR-L1": "SMSWAHFNGDNWKNSIA", "CDR-L2": "DATHLAY", "CDR-L3": "QQYSRLPIT", "log10 Kd (nM) by replicate": "0.77 / 0.70 / 1.01 / 1.01 / -0.06 / 0.50", "log10 Kd (nM), mean": "0.65", "control signals": "1 of 18 (2.10)"}
{"CDR-L1": "NLTTGYEQGALNTDNIA", "CDR-L2": "HGNMTEA", "CDR-L3": "QQYYRLPLS", "log10 Kd (nM) by replicate": "0.34 / 0.08 / 0.09 / 0.04 / 0.14 / 0.20", "log10 Kd (nM), mean": "0.15", "control signals": "3 of 18 (2.46)"}
{"CDR-L1": "HFSGGMNQGSSAEHNIA", "CDR-L2": "EGTYAEE", "CDR-L3": "QQYARLPLQ", "log10 Kd (nM) by replicate": "0.70 / 0.80 / 0.21 / 0.23 / 0.67 / 0.50", "log10 Kd (nM), mean": "0.52", "control signals": "1 of 18 (1.07)"}
{"CDR-L1": "KVQNHSSGFLNDKNAVA", "CDR-L2": "EDTEVAV", "CDR-L3": "QQYVRLPLI", "log10 Kd (nM) by replicate": "nd / 3.39 / 2.13 / 3.14 / nd / 2.75", "log10 Kd (nM), mean": "2.85", "control signals": "3 of 18 (2.74)"}
{"CDR-L1": "QIAMAMYHGLNDNQNIA", "CDR-L2": "DAMTYIK", "CDR-L3": "QQYSRLPLF", "log10 Kd (nM) by replicate": "1.87 / 0.86 / 0.40 / 1.77 / 0.77 / 2.06", "log10 Kd (nM), mean": "1.29", "control signals": "1 of 18 (1.51)"}

A sequence measured in both rounds can read differently, since the two assays cover different ranges. The authors averaged sequences with at least three values out of six and counted those with two or fewer as poor binders. As a blank, each scFv also met three strains without target: over all light chain designs, 4% of these pairings were detected, typically at 2.64 and seldom below 1.59. For each scFv, signals with the empty controls are counted beside the result, with their mean in brackets.